# Binding of CDR-mutated scFvs to a peptide of the spike HR2 region

Target peptide (SARS-CoV-2 spike, HR2 region): PDVDLGDISGINAS

Parent: Ab-14, a human scFv built as VH, three GGGGS repeats, VL. Only the CDRs of the light chain vary.
VH: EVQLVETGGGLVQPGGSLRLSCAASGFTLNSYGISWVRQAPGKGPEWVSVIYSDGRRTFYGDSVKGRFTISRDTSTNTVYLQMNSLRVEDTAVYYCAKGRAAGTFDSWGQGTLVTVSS
VL: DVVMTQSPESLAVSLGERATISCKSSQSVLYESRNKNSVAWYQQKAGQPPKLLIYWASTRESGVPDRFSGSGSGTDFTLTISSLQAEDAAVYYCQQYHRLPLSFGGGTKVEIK

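The starting antibody came from a phage panning campaign against this peptide. AAYL50 was designed without a model: most single CDR substitutions and a random sample of double and triple ones. The assay is AlphaSeq: two haploid yeast populations carry antibody and antigen on their surface. The frequency of each diploid, read from paired DNA barcodes, reflects how well the two displayed proteins bind. Each replicate has its own calibration line, from reference interactions of the BCL2 family. The assay was run in three technical replicates.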

Positions count from residue 1 of the parent VL; S33P puts P in place of S. Values are log10 of the apparent Kd in nM; lower means stronger binding. An entry "nd" has no value in the source: the pair was not observed among the diploids in that replicate. This suggests poor binding but is not conclusive. Background: pairings of library AAYL50 with three empty control strains gave a value in 18% of cases (median 4.19, 5th percentile 2.99). Values in that range, when seen in few replicates, are hard to tell from nonspecific mating. For each scFv, signals with the empty controls are counted beside the result, with their mean in brackets.

{"changes": "S33P+W56R+T59E", "replicates, log10 nM": "0.69 / 0.92 / 0.92", "empty controls": "1/9 (3.47)"}
{"changes": "S25P+L30K+N35E", "replicates, log10 nM": "2.73 / 3.31 / 2.74", "empty controls": "3/9 (4.07)"}
{"changes": "S25T+S28E+L30V", "replicates, log10 nM": "1.05 / 1.00 / 1.57", "empty controls": "1/9 (3.81)"}
{"changes": "S26H+S33R+S103H", "replicates, log10 nM": "3.59 / 2.78 / 3.00", "empty controls": "0/9"}
{"changes": "S25C+S33A", "replicates, log10 nM": "1.10 / 1.20 / 1.23", "empty controls": "3/9 (4.29)"}
{"changes": "N37V+S38E+L100F", "replicates, log10 nM": "nd / nd / nd", "empty controls": "0/9"}
{"changes": "S28K+Y97E", "replicates, log10 nM": "nd / 4.39 / nd", "empty controls": "4/9 (3.77)"}
{"changes": "N35R+Q96R+L100M", "replicates, log10 nM": "1.61 / 0.96 / 1.58", "empty controls": "0/9"}
{"changes": "E32Y+V39G+R99Q", "replicates, log10 nM": "nd / nd / nd", "empty controls": "2/9 (3.34)"}
{"changes": "V29L+N35P+Y97M", "replicates, log10 nM": "5.00 / 3.72 / nd", "empty controls": "1/9 (4.22)"}
{"changes": "L30R+N35Q+S58D", "replicates, log10 nM": "1.06 / 1.61 / 1.45", "empty controls": "3/9 (4.82)"}
{"changes": "K24N+Q27I+L100G", "replicates, log10 nM": "0.88 / 1.00 / 1.39", "empty controls": "1/9 (4.31)"}
{"changes": "N37Q+H98D", "replicates, log10 nM": "2.10 / 1.62 / 1.93", "empty controls": "2/9 (4.08)"}
{"changes": "S62D+Q96R+P101H", "replicates, log10 nM": "nd / nd / nd", "empty controls": "0/9"}
{"changes": "K24Y+P101C+S103M", "replicates, log10 nM": "2.39 / 2.33 / 2.51", "empty controls": "1/9 (6.46)"}
{"changes": "S28Y+S33N+P101W", "replicates, log10 nM": "1.59 / 1.62 / 2.40", "empty controls": "1/9 (5.19)"}
{"changes": "N37D+V39R+L102T", "replicates, log10 nM": "nd / nd / 4.05", "empty controls": "2/9 (5.02)"}
{"changes": "R34S+S38P+S103C", "replicates, log10 nM": "0.64 / 0.86 / 0.57", "empty controls": "1/9 (2.35)"}
{"changes": "Y31E+N37E", "replicates, log10 nM": "2.10 / 2.39 / 2.37", "empty controls": "3/9 (5.14)"}
{"changes": "Y31W+S38H+P101F", "replicates, log10 nM": "nd / nd / nd", "empty controls": "2/9 (2.38)"}
{"changes": "S33Y+Q95A", "replicates, log10 nM": "nd / nd / 2.07", "empty controls": "0/9"}
{"changes": "S38W+V39K+L102N", "replicates, log10 nM": "nd / nd / nd", "empty controls": "0/9"}
{"changes": "S28F+S33G+T59N", "replicates, log10 nM": "1.37 / 1.60 / 1.77", "empty controls": "0/9"}
{"changes": "V29P+E32C+L100G", "replicates, log10 nM": "nd / 4.97 / nd", "empty controls": "2/9 (3.10)"}

Top 4 of the variants detected in all replicates, tightest first:

{"changes": "R34S+S38P+S103C", "replicates, log10 nM": "0.64 / 0.86 / 0.57", "empty controls": "1/9 (2.35)"}
{"changes": "S33P+W56R+T59E", "replicates, log10 nM": "0.69 / 0.92 / 0.92", "empty controls": "1/9 (3.47)"}
{"changes": "K24N+Q27I+L100G", "replicates, log10 nM": "0.88 / 1.00 / 1.39", "empty controls": "1/9 (4.31)"}
{"changes": "S25C+S33A", "replicates, log10 nM": "1.10 / 1.20 / 1.23", "empty controls": "3/9 (4.29)"}

Data: MIT Lincoln Laboratory AlphaSeq set, Engelhart et al. 2022, doi:10.1038/s41597-022-01779-4, as distributed in FLAb.